Experimental properties from OPERA 2.9

Values as listed in the OPERA 2.9 repository of K. Mansouri.

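The numbers are reported measurements, compiled and curated for the OPERA QSAR suite. A listed value is a point estimate from one report or more. Conditions of the individual experiments are not part of the data. Where a salt, mixture or single isomer is drawn, the source does not say that exactly this form was tested. Some upstream entries may be estimates or bounds without being marked so.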

Melting points are in °C. Boiling points are in °C, nominally at 760 mmHg. The octanol-water partition coefficient is given as log10; larger values mean a more lipophilic compound. Solubility in water is on a log10 molar scale (set defined at 25 °C). Vapor pressure is log10 of mmHg; the set covers 15 to 30 °C, mostly 20 to 25 °C. Henry's law constant (air-water partitioning) is log10 of atm·m3/mol, nominally at 25 °C. The unbound fraction in human plasma runs from 0 (all bound) to 1 (all free). Intrinsic clearance (human, µL/min per 10^6 hepatocytes): higher is faster turnover, and 0 stands for none detected. Cells with "n/a" have no entry in this list.

melting point (°C) | bp (°C) | logP | log solubility (log10 mol/L) | log vapor pressure (log10 mmHg) | log Henry constant (log10 atm·m3/mol) | fu | hepatic Clint (µL/min/10^6 cells) | SMILES
n/a | n/a | 0.475 | n/a | 0.198 | n/a | n/a | n/a | Cc1cc[nH]n1
n/a | 499 | -2.5 | n/a | -4.87 | -8.097 | n/a | n/a | O=C(CCCCC(=O)N(CCO)CCO)N(CCO)CCO
n/a | n/a | 2.03 | -3.179 | -5.593 | n/a | n/a | n/a | COc1cc([N+](=O)[O-])c(OC)cc1Cl
n/a | n/a | n/a | -6.806 | n/a | n/a | 0.05 | n/a | C[C@@H](NCCCc1cccc(C(F)(F)F)c1)c1cccc2ccccc12
20 | n/a | n/a | n/a | -4.875 | n/a | n/a | n/a | Brc1ccc(Oc2ccccc2Br)cc1Br
210.8 | n/a | 1 | -3.129 | -10.37 | n/a | n/a | n/a | NS(=O)(=O)CCN1C(=O)c2ccccc2C1=O
n/a | n/a | 4.5 | -3.297 | -1.129 | n/a | n/a | n/a | COC(C)(C)C1CC=C(C)CC1 (centres undefined)
n/a | n/a | 0.52 | n/a | -5.979 | n/a | n/a | n/a | Cc1cc(C2CCCCC2)n(O)c(=O)c1.NCCO
n/a | n/a | 1.22 | -2.357 | -4.502 | n/a | n/a | n/a | COc1cc2c(cc1OC)C(C#N)C2 (centres undefined)
n/a | 211.8 | n/a | n/a | -1.62 | n/a | n/a | n/a | CC(=O)OCCC(C)CC=O (centres undefined)
n/a | n/a | n/a | -4.036 | -3.305 | n/a | n/a | n/a | CC(C)(C)C(=O)CCc1ccc(Cl)cc1
n/a | n/a | n/a | -5.635 | -7.19 | n/a | n/a | n/a | CC(C)(c1cc(Br)c(O)c(Br)c1)c1cc(Br)c(O)c(Br)c1
n/a | n/a | 4.13 | -4.198 | 2.297 | n/a | n/a | n/a | C=CC(F)(F)C(F)(F)C(F)(F)C(F)(F)F
-35.4 | 354.6 | n/a | -6.194 | -4.71 | n/a | n/a | n/a | CCCCCCCCCCCCOC(=O)C(CC)CCCC (centres undefined)
n/a | 260 | n/a | -6.066 | n/a | n/a | n/a | n/a | CC=C1CC2CC1C1C3C=CC(C3)C21 (centres undefined)
34.9 | n/a | n/a | -5.452 | -3.979 | n/a | n/a | n/a | CC(CO)C1CCCCCCCCCCC1 (centres undefined)
218 | n/a | -0.8 | -4.476 | n/a | n/a | n/a | n/a | COc1ccccc1C(=O)NS(=O)(=O)c1ccc(C(=O)NC2CC2)cc1
n/a | 318 | n/a | -2.204 | -3.524 | n/a | n/a | n/a | CCC=C1OC(=O)c2ccccc21
187.5 | n/a | 3 | -4.458 | n/a | n/a | 0.4 | n/a | CC[C@H]1OC(=O)[C@H](C)C(=O)[C@H](C)[C@@H](O[C@@H]2O[C@H](C)C[C@H](N(C)C)[C@H]2O)[C@](C)(OC)C[C@@H](C)C(=O)[C@H](C)[C@H]2N(CCCCn3cnc(-c4cccnc4)c3)C(=O)O[C@]12C
149.8 | n/a | 1.7 | -3.027 | n/a | n/a | n/a | n/a | CS(=O)(=O)OCC1COC(Cn2cncn2)(c2ccc(Cl)cc2Cl)O1.Cl (centres undefined)
229 | 405 | 0.004 | -2.617 | n/a | n/a | n/a | n/a | Cc1c(S(C)(=O)=O)ccc(C(=O)O)c1Cl
60 | 225.8 | 1.02 | n/a | -0.292 | n/a | n/a | n/a | CC(C)[C@@]12CC[C@@](C)(O1)[C@@H](O)C2 (relative stereo)
226.5 | n/a | 4.8 | n/a | -12 | n/a | n/a | n/a | CC(C)(C)c1cc(CCC(=O)NNC(=O)CCc2cc(C(C)(C)C)c(O)c(C(C)(C)C)c2)cc(C(C)(C)C)c1O
n/a | n/a | 5.79 | -5.904 | -3.195 | n/a | n/a | n/a | O=C1CCCCCCCCCCCCCCO1
103.2 | n/a | n/a | -3.452 | -8.454 | n/a | n/a | n/a | CC(C)(c1ccc(OCCO)cc1)c1ccc(OCCO)cc1
n/a | n/a | n/a | n/a | n/a | n/a | 0.138 | 0 | c1ccc(CNc2[nH]cnc3ncnc2-3)cc1
n/a | n/a | 4.61 | -4.916 | n/a | n/a | n/a | n/a | C#C[C@]1(O)CC[C@H]2[C@@H]3CCc4cc(OC)ccc4[C@H]3CC[C@@]21C
n/a | 202.4 | n/a | n/a | 0.773 | n/a | n/a | n/a | C[Si](C)(F)CCCC#N
28.1 | n/a | n/a | n/a | -1.321 | n/a | n/a | n/a | CON=C1COc2ccccc21
-69 | n/a | 1.6 | n/a | -3.205 | n/a | n/a | n/a | OCC(O)COC1CCCCC1 (centres undefined)
n/a | n/a | 2 | -2.827 | n/a | n/a | n/a | n/a | Cc1nc[nH]c1CN1CCc2c(c3ccccc3n2C)C1=O
140.1 | n/a | 3.649 | -1.962 | n/a | n/a | n/a | n/a | CCN(CC)c1ccc2c(c1)Oc1cc(N(CC)CC)ccc1C21OC(=O)c2ccccc21
n/a | n/a | 3.9 | -3.432 | -2.084 | n/a | n/a | n/a | CCC=C(C)C(O)CCCCC (centres undefined)
n/a | n/a | 2.2 | -7.784 | n/a | n/a | n/a | n/a | Cc1ccc2[nH]c3cc4c(=O)c5cc(C)ccc5[nH]c4cc3c(=O)c2c1